Measurements taken from patent US10913738B2 (BRISTOL-MYERS SQUIBB COMPANY, priority 2017, dated 2021).

Test system: MLKL phosphorylation in HT29-L23 human colorectal adenocarcinoma cells
Test: MLKL Phosphorylation High-Content Assay
Type: cell-based
Conditions: read-out: pMLKL cell activity >200 nM, x marks IC50 class >200 nM

COc1ncc(-c2ccn3nc(N)nc3c2)cc1C(=O)NCc1ccc(F)cc1OC1CCOC1 (stereo not shown) was tested, and the IC50 was > 200 nM.
